Experimental data from PubChem BioAssay AID504734 (The Scripps Research Institute Molecular Screening Center, 2011).
The entries are a selection whose mix differs from that of the whole data set. The source made the active and inactive calls.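 Rule for the calls: active = inhibition above the mean over all tested compounds plus 3 SD (cut at about 21% in these data); inactive = the rest.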

Amino acid sequences for entries named in this document (tags omitted). A change or cut given only in a name is not applied to a line headed by its entry.
UniProt Q9NR96: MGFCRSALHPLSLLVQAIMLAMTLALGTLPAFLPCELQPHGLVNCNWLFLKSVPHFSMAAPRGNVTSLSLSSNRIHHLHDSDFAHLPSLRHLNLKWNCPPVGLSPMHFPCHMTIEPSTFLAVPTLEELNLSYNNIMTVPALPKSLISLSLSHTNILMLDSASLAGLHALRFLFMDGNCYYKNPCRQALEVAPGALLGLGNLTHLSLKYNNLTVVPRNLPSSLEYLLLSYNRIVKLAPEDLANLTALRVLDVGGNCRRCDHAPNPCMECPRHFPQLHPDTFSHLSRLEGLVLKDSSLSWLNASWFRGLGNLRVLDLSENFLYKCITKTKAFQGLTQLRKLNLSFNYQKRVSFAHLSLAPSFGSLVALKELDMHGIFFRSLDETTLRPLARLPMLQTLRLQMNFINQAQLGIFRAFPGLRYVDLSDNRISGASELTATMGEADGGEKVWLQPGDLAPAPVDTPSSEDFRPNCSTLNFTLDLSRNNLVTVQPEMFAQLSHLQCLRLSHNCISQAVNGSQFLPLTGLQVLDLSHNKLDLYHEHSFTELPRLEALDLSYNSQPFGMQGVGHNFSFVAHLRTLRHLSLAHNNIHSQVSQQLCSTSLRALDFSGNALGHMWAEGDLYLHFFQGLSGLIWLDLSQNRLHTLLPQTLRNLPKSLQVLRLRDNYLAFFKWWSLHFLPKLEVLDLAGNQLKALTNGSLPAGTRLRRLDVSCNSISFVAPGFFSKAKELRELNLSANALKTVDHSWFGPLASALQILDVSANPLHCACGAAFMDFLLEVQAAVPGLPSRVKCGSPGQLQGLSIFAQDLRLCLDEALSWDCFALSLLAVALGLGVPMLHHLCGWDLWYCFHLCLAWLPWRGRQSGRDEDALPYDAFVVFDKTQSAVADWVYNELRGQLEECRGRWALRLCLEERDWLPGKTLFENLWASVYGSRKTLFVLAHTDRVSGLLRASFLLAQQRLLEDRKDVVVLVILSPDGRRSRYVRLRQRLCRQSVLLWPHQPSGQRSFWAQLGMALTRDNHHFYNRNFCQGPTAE
UniProt Q99836, whole entry, looked up: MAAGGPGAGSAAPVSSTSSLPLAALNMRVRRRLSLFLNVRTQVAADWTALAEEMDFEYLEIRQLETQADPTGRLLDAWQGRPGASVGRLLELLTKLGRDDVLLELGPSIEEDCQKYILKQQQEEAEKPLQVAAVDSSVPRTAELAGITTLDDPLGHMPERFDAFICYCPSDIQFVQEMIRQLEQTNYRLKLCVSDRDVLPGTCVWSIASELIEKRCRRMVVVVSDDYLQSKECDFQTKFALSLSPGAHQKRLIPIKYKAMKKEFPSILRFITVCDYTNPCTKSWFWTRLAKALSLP

The compounds below were run against Toll-like receptor 9 (Homo sapiens) + Myeloid differentiation primary response protein MyD88 (Homo sapiens) (UniProt Q9NR96+Q99836) (assay: inhibitors of TLR9-MyD88 association in cells, primary screen, cell-based, CHO, BLA complementation, fluorescence (AID 504734;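 note: 0% = DMSO only wells and 100% = clavulanate BLA inhibitor control wells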)). Conditions: CHO BLA complementation TLR9-MyD88, CCF4 FRET ratio; at 4.98 µM; stronger effect = higher value.
In the case of CC(C)(C)C(=O)NC(Sc1ncccn1)C(Cl)(Cl)Cl (centres undefined), the inhibition is reported as inactive: 4.68%.
For Clc1n[nH]nc1-c1nn[nH][15n]1, the inhibition was inactive: -4.63%.
In the case of O=P1(N(CCCl)CCCl)NCCC(C(F)(F)F)O1 (centres undefined), the inhibition is reported as inactive: 1.95%.
For CCOP(=O)(NC(=NC(C)c1ccccc1)NC(C)c1ccccc1)OCC (centres undefined), the inhibition was inactive: -12.3%.
CCC1=CC2Cc3nc4ccc(Cl)cc4c(N)c3C(C1)C2 (centres undefined) was tested, and the inhibition was inactive: 7.48%.
O=P1(Nc2ccccn2)COc2ccccc2OC1 was tested, and the inhibition was inactive: 13.3%.
CCOP(=O)(Nc1ccc(C)cn1)OCC was tested, and the inhibition was inactive: -13.1%.
In the case of CN(C(=O)Cc1ccc(Cl)c(Cl)c1)[C@@H]1CCCC[C@H]1N1CCCC1, the inhibition is reported as inactive: -4.97%.
For CC(C)/C=N\N=C(\N)N[N+](=O)[O-], the inhibition was inactive: -15.2%.
For CC1(CBr)Cn2c(nc3ccccc3c2=O)S1 (centres undefined), the inhibition was inactive: 3.63%.
For COc1ccccc1CNC(=O)COC(=O)C(O)(c1ccccc1)c1ccccc1, the inhibition was inactive: 14.8%.
For CN(C)C1(CNC(=O)c2ccc(S(C)(=O)=O)cc2)CCCCC1, the inhibition was inactive: -1.77%.
For CCCC1OP(=O)(Nc2ccccc2)OCC1CC (centres undefined), the inhibition was inactive: 0.86%.
O=C(/C=C/c1ccccc1)OC1CN2CCC1CC2 (centres undefined) was tested, and the inhibition was inactive: 5.4%.
In the case of Cc1ccc(C(=O)OC2CN3CCC2CC3)cc1 (centres undefined), the inhibition is reported as inactive: 2.2%.
With CC1CCC(C(C)C)C(OP(=O)(Nc2ccccn2)c2ccccc2)C1 (centres undefined) the inhibition was inactive: 9.99%.
In the case of Cc1nn(-c2ccccc2)c2c1P(=O)(N1CCOCC1)N(C)C(c1ccccc1)=N2 (centres undefined), the inhibition is reported as inactive: 10.1%.
For Nc1cccc([As](=O)(O)c2ccccc2)c1, the inhibition was inactive: 5.66%.
For Cc1ccc(OCC(=O)OC2CN3CCC2CC3)cc1 (centres undefined), the inhibition was inactive: -7.09%.
O=[As](O)(c1cccs1)c1cccs1 was tested, and the inhibition was inactive: -0.1%.
With NS(=O)(=O)c1cccc(NC(=O)COC(=O)C(O)(c2ccccc2)c2ccccc2)c1 the inhibition was inactive: 0.95%.
With O=P1(Nc2ccc(Br)cn2)COc2ccccc2OC1 the inhibition was inactive: -1.08%.
With O=P1(Nc2ncccn2)COc2ccccc2OC1 the inhibition was inactive: 3.69%.
In the case of O=C(O)COc1ccc([As](=O)(O)O)cc1[N+](=O)[O-], the inhibition is reported as inactive: 0.78%.
For Nc1ccccc1[As](=O)(O)c1ccccc1, the inhibition was inactive: 5.29%.
In the case of O=P(Nc1nccs1)(Oc1ccccc1)Oc1ccccc1, the inhibition is reported as inactive: -5.19%.
In the case of O=P(Nc1nccs1)(c1ccccc1)c1nc2ccccc2s1 (centres undefined), the inhibition is reported as inactive: 7.52%.
With CCOP1(=S)c2c(C)nn(CCC#N)c2N=C(c2ccccc2F)N1C (centres undefined) the inhibition was inactive: -4.73%.
In the case of CS(=O)(=O)c1cc([N+](=O)[O-])c2no[n+]([O-])c2c1, the inhibition is reported as inactive: 4.78%.
CCOP1(=S)c2c(C)nn(CCC#N)c2N=C(c2ccc(F)cc2)N1C (centres undefined) was tested, and the inhibition was inactive: -2.1%.
For CN(C(=O)Cc1ccccc1)[C@@H]1CC[C@]2(CCCO2)C[C@H]1N1CCCC1, the inhibition was inactive: 0.38%.
N#CCCN(C(=O)COC(=O)C(O)(c1ccccc1)c1ccccc1)c1ccc(F)cc1 was tested, and the inhibition was inactive: -4.88%.
In the case of CN(C(=O)Cc1ccc(Cl)c(Cl)c1)[C@H]1CC[C@@]2(CCCO2)C[C@@H]1N1CCCC1, the inhibition is reported as inactive: 2.3%.
With O=[N+]([O-])c1ccc2c(c1)nnn2O the inhibition was inactive: -5.61%.
With CN(C)C(=O)c1cc([N+](=O)[O-])cc2c1-c1c(cc([N+](=O)[O-])cc1[N+](=O)[O-])C2=O the inhibition was active: 22.9%.
In the case of NC(=O)Nc1ccc([As](=O)(O)O)cc1, the inhibition is reported as inactive: -0.91%.
Cc1cccc(OCC(=O)OC2CN3CCC2CC3)c1 (centres undefined) was tested, and the inhibition was inactive: -3.98%.
O=[As](O)(c1cccc(O)c1)c1cccc(O)c1 was tested, and the inhibition was inactive: 10.8%.
For O=C(OC1CN2CCC1CC2)c1ccc(Cl)cc1 (centres undefined), the inhibition was inactive: -4.79%.
For CS(=O)(=O)c1ccc(Cl)c(NC(=O)COC(=O)C(O)(c2ccccc2)c2ccccc2)c1, the inhibition was inactive: -3.42%.
O=[As](O)(O)c1cccnc1 was tested, and the inhibition was inactive: 6.92%.
In the case of COc1cc(C(=O)NCC2(N3CCOCC3)CCCCC2)cc(Cl)c1OC(C)C, the inhibition is reported as inactive: 3.52%.
For CCOP(=O)(Nc1cccc2ccccc12)OCC, the inhibition was inactive: -0.47%.
For COc1cc(C2NCCC3(OCCO3)C2(C)C)cc(OC)c1OC (centres undefined), the inhibition was inactive: -3.31%.
With Cc1ccc(NCCc2c([N+](=O)[O-])cc([N+](=O)[O-])cc2[N+](=O)[O-])cc1 the inhibition was inactive: 1.5%.
Nc1cccc2c([As](=O)(O)O)cccc12 was tested, and the inhibition was inactive: -7.36%.
CCCOP(=S)(Nc1nc(N)cc(=O)[nH]1)OCCC was tested, and the inhibition was inactive: 3.93%.
For O=P1(N(CCCl)CCCl)Nc2ccccc2N1, the inhibition was inactive: 6.23%.
In the case of O=P1(N(CCCl)CCCl)OCCCN1CCCl (centres undefined), the inhibition is reported as inactive: 1.47%.
With COc1cc(I)ccc1[As](=O)(O)O the inhibition was inactive: -6.4%.
For COc1ccc2nc(NP(=O)(c3ccccc3)c3ccccc3)sc2c1, the inhibition was inactive: -8.47%.
For Cc1c2c(nc3ccccc13)SC(C(Cl)Cl)C2 (centres undefined), the inhibition was inactive: 2%.
For Cc1cc(=O)[nH]c(N[N+](=O)[O-])n1, the inhibition was inactive: 10.8%.
With O=C(OC1CN2CCC1CC2)C12CC3CC(CC(C3)C1)C2 (centres undefined) the inhibition was inactive: -1.02%.
For O=[N+]([O-])c1cc(Oc2ccc([N+](=O)[O-])cc2C(F)(F)F)cc([N+](=O)[O-])c1, the inhibition was inactive: -3.24%.
With COc1ccc(N/C(=N/P(=O)(N2CCOCC2)N2CCOCC2)N2CCOCC2)cc1 the inhibition was inactive: 0.75%.
For Cc1ccc(OP(=O)(Nc2ccc([N+](=O)[O-])cn2)Oc2ccc(C)cc2)cc1, the inhibition was inactive: 4.6%.
Cc1ccc2nc3c(c(C)c2c1)CC(C(Cl)Cl)S3 (centres undefined) was tested, and the inhibition was inactive: 5.12%.
With O=[N+]([O-])c1ccc(-c2cc([N+](=O)[O-])c(O)c([N+](=O)[O-])c2)cc1 the inhibition was inactive: -1.3%.
For COc1cc(C(=O)NCC2(N3CCOCC3)CCCCC2)ccc1OCC(C)C, the inhibition was inactive: 0.02%.
With C[As](=O)(O)c1cccc(C(=O)O)c1 the inhibition was inactive: -3.39%.
O=[As](O)(c1ccc(O)cc1)c1ccccc1O was tested, and the inhibition was inactive: 0.79%.
O=[N+]([O-])c1cc([N+](=O)[O-])c(-c2ccn[nH]2)s1 was tested, and the inhibition was inactive: 7.5%.
CCN(CC)C(=S)SC(NC=O)C(Cl)(Cl)Cl (centres undefined) was tested, and the inhibition was inactive: -10.2%.
